Assay results published in ChEMBL document CHEMBL4387707, “Structure-Activity Relationships for Itraconazole-Based Triazolone Analogues as Hedgehog Pathway Inhibitors” (J Med Chem, 2019).

Amino acid sequences for entries named in this document (tags omitted).
UniProt P56726, whole entry: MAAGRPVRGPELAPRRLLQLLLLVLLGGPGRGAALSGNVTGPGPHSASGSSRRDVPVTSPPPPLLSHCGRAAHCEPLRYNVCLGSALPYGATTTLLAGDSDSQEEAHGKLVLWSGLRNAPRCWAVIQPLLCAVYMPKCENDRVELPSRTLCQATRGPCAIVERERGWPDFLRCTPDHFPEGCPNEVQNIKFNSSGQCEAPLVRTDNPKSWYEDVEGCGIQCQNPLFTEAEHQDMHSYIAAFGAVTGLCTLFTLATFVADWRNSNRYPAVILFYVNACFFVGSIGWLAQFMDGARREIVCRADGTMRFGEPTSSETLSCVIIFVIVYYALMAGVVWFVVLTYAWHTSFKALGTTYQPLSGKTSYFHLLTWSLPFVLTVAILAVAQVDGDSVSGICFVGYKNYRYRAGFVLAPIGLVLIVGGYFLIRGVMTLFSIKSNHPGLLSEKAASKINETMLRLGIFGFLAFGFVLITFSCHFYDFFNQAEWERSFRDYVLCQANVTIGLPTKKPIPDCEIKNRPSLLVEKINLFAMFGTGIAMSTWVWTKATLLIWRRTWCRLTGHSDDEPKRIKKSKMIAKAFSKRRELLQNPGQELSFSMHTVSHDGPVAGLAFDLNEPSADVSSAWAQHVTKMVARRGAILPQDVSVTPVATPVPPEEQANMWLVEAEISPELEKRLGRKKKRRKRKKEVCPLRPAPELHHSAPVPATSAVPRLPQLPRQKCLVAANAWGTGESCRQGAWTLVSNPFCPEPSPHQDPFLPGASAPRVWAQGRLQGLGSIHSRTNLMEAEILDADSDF

Biological target: Protein smoothened (Mus musculus, UniProt P56726)
Test: Inhibition of smo-mediated hedgehog signaling pathway in mouse ASZ001 cells assessed as decrease in Gli1 mRNA expression after 48 hrs by qPCR method
Assay type: cell-based
Method in brief: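 Gli1 mRNA measured by qPCR after 48 h incubation with compound, normalized to actin as internal control. Concentrations judged cytotoxic (by visual assessment and/or a significant drop in actin expression) were excluded from analysis. IC50 given as mean ± SEM of at least two separate experiments, each in triplicate.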

C[C@@]1(c2ccc(Cl)cc2Cl)OC[C@@H](COc2ccc(N3CCN(c4ccc(NC(=O)Oc5ccccc5)cc4)CC3)cc2)O1
IC50: > 10 µM

C[C@]1(c2ccc(Cl)cc2Cl)OC[C@@H](COc2ccc(N3CCN(c4ccc(NC(=O)Oc5ccccc5)cc4)CC3)cc2)O1
IC50: > 10 µM
